{"source": "ChEMBL document CHEMBL3351803", "about": "“5Z-7-Oxozeaenol covalently binds to MAP2K7 at Cys218 in an unprecedented manner” (Bioorg Med Chem Lett, 2015)", "biological_target": "T1, Mitogen-activated protein kinase kinase kinase 7 (Homo sapiens, UniProt O43318)", "T1 sequence (O43318 whole entry)": "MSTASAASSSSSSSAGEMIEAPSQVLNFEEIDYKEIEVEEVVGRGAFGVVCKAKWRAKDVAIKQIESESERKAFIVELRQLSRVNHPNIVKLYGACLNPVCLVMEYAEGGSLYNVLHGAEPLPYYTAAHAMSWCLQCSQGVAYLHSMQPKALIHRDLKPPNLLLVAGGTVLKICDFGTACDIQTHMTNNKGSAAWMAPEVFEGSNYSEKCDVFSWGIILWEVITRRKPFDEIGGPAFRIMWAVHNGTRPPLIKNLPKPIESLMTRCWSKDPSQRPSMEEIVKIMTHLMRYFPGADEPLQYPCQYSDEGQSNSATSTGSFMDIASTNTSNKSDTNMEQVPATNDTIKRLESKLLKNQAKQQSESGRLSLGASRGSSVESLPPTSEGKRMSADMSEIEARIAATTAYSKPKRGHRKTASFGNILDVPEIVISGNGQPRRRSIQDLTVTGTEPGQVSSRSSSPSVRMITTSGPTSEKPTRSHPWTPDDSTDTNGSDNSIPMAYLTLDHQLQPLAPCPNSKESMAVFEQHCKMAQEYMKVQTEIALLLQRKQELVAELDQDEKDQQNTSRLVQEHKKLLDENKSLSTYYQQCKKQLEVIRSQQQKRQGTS", "assay": "Inhibition of TAK1 (unknown origin) using unphosphorylated GST-tagged MAP2K7 substrate protein assessed as phosphorylation by ELISA", "data": [{"compound": "COc1cc(O)c2c(c1)/C=C/C[C@H](O)[C@H](O)C(=O)/C=C\\C[C@H](C)OC2=O", "values": [{"measurement": "IC50", "result": 80, "unit": "nM"}]}]}
